Measurements from publication PMC12184663 (Proceedings of the National Academy of Sciences of the …, 2025).

Sequences of proteins named here, by UniProt entry; tags and fusion partners are left off.
UniProt A0A926DHK7, entry or part of it: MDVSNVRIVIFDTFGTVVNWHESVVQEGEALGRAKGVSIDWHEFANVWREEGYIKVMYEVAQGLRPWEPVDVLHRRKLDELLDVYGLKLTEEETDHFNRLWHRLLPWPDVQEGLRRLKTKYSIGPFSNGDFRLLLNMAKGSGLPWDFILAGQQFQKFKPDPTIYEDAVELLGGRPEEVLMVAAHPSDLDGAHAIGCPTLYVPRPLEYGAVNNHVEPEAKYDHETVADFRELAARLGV
UniProt Q0SK70, entry or part of it: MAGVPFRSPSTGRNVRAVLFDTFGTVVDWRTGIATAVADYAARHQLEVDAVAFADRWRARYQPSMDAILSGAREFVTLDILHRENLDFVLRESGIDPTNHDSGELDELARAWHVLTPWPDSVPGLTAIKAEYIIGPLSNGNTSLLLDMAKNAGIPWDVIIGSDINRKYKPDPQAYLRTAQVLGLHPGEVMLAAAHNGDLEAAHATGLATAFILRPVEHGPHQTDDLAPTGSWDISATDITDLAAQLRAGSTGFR

Legend:
[1] = molecular target: T1, P6 (WP_178618037, Guopingia tenuis) (Guopingia tenuis, UniProt A0A926DHK7); conditions: 1 mM substrate, 100 mM Tris-SO4 pH 8.5, 37 °C
T1 construct: gene H8693_03100

P3 = test system: T2, P3; conditions: Tris-SO4 pH 8.5 (100 mM; 300 mM at 20-100 mM substrate), 37 °C, 0.5 mg/mL enzyme
T2 construct: gene haloacid dehalogenase type II

[2] = molecular target: T3, P5 (HAD from R. jostii RHA1, Rha0230) (Rhodococcus jostii, UniProt Q0SK70)
T3 construct: gene RHA1_ro00230

With `O=C(O)CF` [FAc, fluoroacetate] the “ion chromatography of fluoride and glycolate” value [1] was “The remaining four enzymes hydrolyzed fluoroacetate, producing fluoride ion and glycolate stoichiometrically” and the Km (P3) was 59.8 ± 7.7 mM.
With `O=C(O)C(F)F` [DFA, difluoroacetate] the ion chromatography [2] was “three enzymes (P2, P3, and P5) capable of defluorinating DFA”.
